## Apparent affinities of Ab-91 variants for a coronavirus HR2 peptide

Binding partner: SARS-CoV-2 spike HR2 peptide, sequence PDVDLGDISGINAS.

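The starting antibody came from a phage panning campaign against this peptide. Library AAYL51 holds single substitutions and randomly drawn double and triple substitutions in the CDRs. Affinity was read by AlphaSeq, a pooled yeast mating assay with surface-displayed partners. Pairs that bind mate more often; barcode pairs of the diploids are counted by sequencing. Read counts were normalised to the haploid input and turned into Kd by a linear fit to BCL2-family pairs of known affinity, for each replicate. Mating was done three times.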

Ab-91 is the parent antibody, in scFv form: VL, then a 15-residue (Gly4Ser)3 linker, then VH. The light chain is unchanged in all variants.
VL: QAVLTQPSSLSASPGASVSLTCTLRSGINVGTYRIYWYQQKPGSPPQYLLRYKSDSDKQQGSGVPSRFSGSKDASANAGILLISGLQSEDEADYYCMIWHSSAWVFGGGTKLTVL
VH: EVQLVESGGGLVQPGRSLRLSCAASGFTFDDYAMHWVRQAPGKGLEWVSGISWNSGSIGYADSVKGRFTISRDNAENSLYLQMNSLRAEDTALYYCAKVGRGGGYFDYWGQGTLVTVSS

Positions count from residue 1 of the parent VH; F29I puts I in place of F. Values are log10 of the apparent Kd in nM; lower means stronger binding. A pair that was not seen in that replicate is written "ND"; this usually means weak binding, but a binder can also be missed.

changes	replicates, log10 nM	control signals
F29I+D31T+Y60A	3.39 5.97 ND	3 of 9 (3.76)
F29I+D30K+Y32K	3.03 ND ND	1 of 9 (2.91)
A61P+V99Y+Y105H	ND ND ND	0 of 9
A61T	3.47 3.42 ND	1 of 9 (5.16)
N54Q+G100L	ND ND ND	1 of 9 (4.48)
D30V+Y108S	1.41 1.55 0.37	1 of 9 (1.84)
H35V+I58M+Y105W	ND 4.95 ND	1 of 9 (4.15)
Y32H+S55M+Y60M	4.77 ND ND	2 of 9 (4.88)
F27E+G50D+F106T	ND ND ND	0 of 9
T28P+N54V+Y108N	3.54 4.61 ND	5 of 9 (4.32)
D30S+V99E+R101N	ND ND ND	0 of 9
D30S+D62M+S63H	2.47 2.67 2.20	2 of 9 (4.84)
I51H+I58F+Y105E	ND ND 3.19	0 of 9
G50V	ND ND ND	0 of 9
D31T+D62A+F106N	ND ND ND	2 of 9 (4.15)
A33H+D107C	ND ND ND	0 of 9
W53R+A61I+K65E	4.57 4.89 5.24	8 of 9 (5.00)
I58H+G104Q+Y105Q	0.80 0.72 1.51	0 of 9
Y60A+V99R+Y108Q	ND ND ND	3 of 9 (4.44)
S52F+G56E+D107G	4.04 ND ND	1 of 9 (4.79)
G26H+G50W+G103K	ND ND 4.98	2 of 9 (3.99)
I51K+G56K+I58T	ND ND ND	0 of 9
G26S+K65D+D107W	ND ND ND	0 of 9
G26M+D31I+S57I	4.44 4.61 ND	2 of 9 (3.89)
G59H+D107W	ND 4.20 ND	1 of 9 (4.25)
G26K+D30M+M34V	ND ND 4.67	5 of 9 (4.10)
S52A+W53I+G103K	1.24 1.57 0.79	0 of 9
F27Q+A33R+G59D	ND ND ND	1 of 9 (2.77)
G26Q+H35N+I58Y	ND ND ND	3 of 9 (4.09)
G59R+A61D+K65E	4.51 6.69 5.69	6 of 9 (5.08)
F29E	ND ND ND	3 of 9 (4.28)
G50R+G59D+A61L	4.89 ND 3.80	3 of 9 (4.81)
F29T+S57G+A61C	ND ND ND	0 of 9
F27G+T28Y+W53P	0.41 0.24 -0.48	3 of 9 (4.69)
D31Y+I51P+F106D	ND ND ND	1 of 9 (1.32)
S57K+Y60E+D62H	ND ND 5.26	2 of 9 (4.65)

A selection of 3 entries from above:

changes	replicates, log10 nM	control signals
D30V+Y108S	1.41 1.55 0.37	1 of 9 (1.84)
N54Q+G100L	ND ND ND	1 of 9 (4.48)
Y32H+S55M+Y60M	4.77 ND ND	2 of 9 (4.88)

For reference, the parent read 1.86 as the reference entry and 0.88 as a member of this library. Background: pairings of library AAYL51 with three empty control strains gave a value in 21% of cases (median 4.54, 5th percentile 3.26). Values in that range, when seen in few replicates, are hard to tell from nonspecific mating. For each scFv, signals with the empty controls are counted beside the result, with their mean in brackets.

From the AlphaSeq antibody data of Engelhart et al. 2022 (doi:10.1038/s41597-022-01779-4), copy in the FLAb collection.